Source: ChEMBL document CHEMBL5233252, “Single and dual target inhibitors based on Bcl-2: Promising anti-tumor agents for cancer therapy” (Eur J Med Chem, 2020)

Amino acid sequences for entries named in this document (tags omitted).
UniProt P10415, whole entry: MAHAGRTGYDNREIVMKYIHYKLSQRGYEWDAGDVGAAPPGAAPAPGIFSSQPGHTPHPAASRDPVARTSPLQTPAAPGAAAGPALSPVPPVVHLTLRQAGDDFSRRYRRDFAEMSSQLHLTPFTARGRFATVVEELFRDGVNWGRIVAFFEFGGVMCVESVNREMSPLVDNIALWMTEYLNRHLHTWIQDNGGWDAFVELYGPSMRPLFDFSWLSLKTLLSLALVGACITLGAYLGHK

Target: Apoptosis regulator Bcl-2 (Homo sapiens, UniProt P10415)
Test: Binding affinity to Bcl-2 (unknown origin) assessed as inhibition constant by competitive fluorescence polarization assay

- Ki: ≤ 1 nM
SMILES: CC1(C)CCC(c2ccc(Cl)cc2)=C(CN2CCN(c3ccc(C(=O)NS(=O)(=O)c4ccc(N[C@H](CCN5CCOCC5)CSc5ccccc5)c(S(=O)(=O)C(F)(F)F)c4)cc3)CC2)C1 [NAVITOCLAX]
